# Experimental data from patent US6255089A (dated 2001).
# Tested on: 5-HT2A cys→lys mutant receptor
# Conditions: mutated 5-HT2A cys→lys receptor; inverse agonism
row,SMILES,reduction of constitutively activated IP basal activity
1,CN(C)CCCN1c2ccccc2Sc2ccc(Cl)cc21 [chlorpromazine],reduce the constitutively activated IP basal activity
2,Cc1nc2n(c(=O)c1CCN1CCC(c3noc4cc(F)ccc34)CC1)CCCC2 [risperidone],reduce the constitutively activated IP basal activity
